Results published in BindingDB's records for PubMed 7908055 (Case Western Reserve University, 1994).

Chains of the proteins cited; added tags and fusions are not shown.
UniProt P14842, whole entry: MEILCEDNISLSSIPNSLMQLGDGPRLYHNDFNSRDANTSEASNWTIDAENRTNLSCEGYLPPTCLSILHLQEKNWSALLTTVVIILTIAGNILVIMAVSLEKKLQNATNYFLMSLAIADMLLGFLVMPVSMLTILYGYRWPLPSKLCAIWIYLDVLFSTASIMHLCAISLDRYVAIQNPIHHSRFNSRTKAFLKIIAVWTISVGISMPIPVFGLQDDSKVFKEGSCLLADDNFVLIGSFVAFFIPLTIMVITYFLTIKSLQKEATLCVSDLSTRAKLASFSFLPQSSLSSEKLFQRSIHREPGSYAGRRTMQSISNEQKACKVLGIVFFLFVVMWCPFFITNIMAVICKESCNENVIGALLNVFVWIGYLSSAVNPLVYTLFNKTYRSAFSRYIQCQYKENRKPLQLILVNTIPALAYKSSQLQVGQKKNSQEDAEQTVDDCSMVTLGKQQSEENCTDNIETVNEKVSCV

What was measured:
[1] = biological target: 5-hydroxytryptamine receptor 2A (Rattus norvegicus, UniProt P14842)
[2] = biological target: T1, 5-hydroxytryptamine receptor 2C (Rattus norvegicus, UniProt P08909)
T1 sequence (P08909 whole entry): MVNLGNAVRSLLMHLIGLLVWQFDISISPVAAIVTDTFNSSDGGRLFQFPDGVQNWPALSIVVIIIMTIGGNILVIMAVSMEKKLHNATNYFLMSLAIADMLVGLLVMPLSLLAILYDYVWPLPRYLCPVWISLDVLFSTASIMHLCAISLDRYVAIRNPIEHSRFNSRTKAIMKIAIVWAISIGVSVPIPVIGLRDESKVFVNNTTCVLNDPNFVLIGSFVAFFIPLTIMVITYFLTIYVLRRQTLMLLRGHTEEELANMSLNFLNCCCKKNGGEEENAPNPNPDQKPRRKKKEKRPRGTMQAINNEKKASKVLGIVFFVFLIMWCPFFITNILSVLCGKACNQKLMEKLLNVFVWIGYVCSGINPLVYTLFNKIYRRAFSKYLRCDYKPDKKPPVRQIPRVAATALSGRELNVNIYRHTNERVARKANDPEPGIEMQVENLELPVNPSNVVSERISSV

O=C(CCCN1CCC2(CC1)C(=O)NCN2c1ccccc1)c1ccc(F)cc1 [8-[4-(4-fluorophenyl)-4-oxidanylidene-butyl]-1-phenyl-1,3,8-triazaspiro[4.5]decan-4-one]
Ki [1]: 0.33 nM | Ki [2]: 977 nM
